Measured values from publication PMC11062922 (Nature Chemical Biology, 2023).

Key:
Parameters in all cases: species or system human
NEK2 = assay: Kinobeads competition binding: NEK2; conditions: target NEK2
MTOR = assay: Kinobeads competition binding: MTOR; conditions: target MTOR
BRAF = assay: Kinobeads competition binding: BRAF; conditions: target BRAF
CAMK4 = assay: Kinobeads competition binding: CAMK4; conditions: target CAMK4;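 also: selectivity score: engagement of this protein divided by summed engagement of all targets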
MAP3K12 = assay: Kinobeads competition binding: MAP3K12; conditions: target MAP3K12
MAPK10 = assay: Kinobeads competition binding: MAPK10; conditions: target MAPK10
PKM = assay: Kinobeads competition binding: PKM; conditions: target PKM
MAPK11 = assay: Kinobeads competition binding: MAPK11; conditions: target MAPK11
JAK2 = assay: Kinobeads competition binding: JAK2; conditions: target JAK2;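 also: target engagement share of this target among all targets at its Kdapp concentration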
MAP4K1 = assay: Kinobeads competition binding: MAP4K1; conditions: target MAP4K1
ILK = assay: Kinobeads competition binding: ILK; conditions: target ILK
LIMK2 = assay: Kinobeads competition binding: LIMK2; conditions: target LIMK2
IGF1R = assay: Kinobeads competition binding: IGF1R; conditions: target IGF1R;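 also: selectivity score: engagement of this protein divided by summed engagement of all targets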
NEK9 = assay: Kinobeads competition binding: NEK9; conditions: target NEK9
CDC42BPA = assay: Kinobeads competition binding: CDC42BPA; conditions: target CDC42BPA;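 also: selectivity score: engagement of this protein divided by summed engagement of all targets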
PI4KB = assay: Kinobeads competition binding: PI4KB; conditions: target PI4KB;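 also: selectivity score: engagement of this protein divided by summed engagement of all targets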
JAK1 = assay: Kinobeads competition binding: JAK1; conditions: target JAK1;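 also: target engagement share of this target among all targets at its Kdapp concentration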
MAP4K3 = assay: Kinobeads competition binding: MAP4K3; conditions: target MAP4K3
IRAK3 = assay: Kinobeads competition binding: IRAK3; conditions: target IRAK3
FLT3 = assay: Kinobeads two-dose competition binding: FLT3; conditions: target FLT3
ACVR2B = assay: Kinobeads competition binding: ACVR2B; conditions: target ACVR2B
CSNK1G1 = assay: Kinobeads competition binding: CSNK1G1; conditions: target CSNK1G1;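 also: share of total target engagement due to this protein at one drug concentration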
MARK2 = assay: Kinobeads competition binding: MARK2; conditions: target MARK2
ERBB3 = assay: Kinobeads competition binding: ERBB3; conditions: target ERBB3
CLK3 = assay: Kinobeads competition binding: CLK3; conditions: target CLK3
PIK3C2B = assay: Kinobeads competition binding: PIK3C2B; conditions: target PIK3C2B
MARK3 = assay: Kinobeads competition binding: MARK3; conditions: target MARK3
MAP4K2 = assay: Kinobeads competition binding: MAP4K2; conditions: target MAP4K2
LIMK1 = assay: Kinobeads competition binding: LIMK1; conditions: target LIMK1
EIF2AK1 = assay: Kinobeads competition binding: EIF2AK1; conditions: target EIF2AK1;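 also: share of total target engagement due to this protein at one drug concentration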
ICK = assay: Kinobeads competition binding: ICK; conditions: target ICK
CDC42BPG = assay: Kinobeads competition binding: CDC42BPG; conditions: target CDC42BPG
CSNK1A1 = assay: Kinobeads competition binding: CSNK1A1; conditions: target CSNK1A1
IRAK1 = assay: Kinobeads competition binding: IRAK1; conditions: target IRAK1
ADRBK1 = assay: Kinobeads competition binding: ADRBK1; conditions: target ADRBK1
MAP2K2 = assay: Kinobeads competition binding: MAP2K2; conditions: target MAP2K2
LYN = assay: Kinobeads competition binding: LYN; conditions: target LYN
MST1R = assay: Kinobeads competition binding: MST1R; conditions: target MST1R
NLK = assay: Kinobeads competition binding: NLK; conditions: target NLK
INSR = assay: Kinobeads competition binding: INSR; conditions: target INSR;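 also: share of total target engagement due to this protein at one drug concentration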
MAPK9 = assay: Kinobeads competition binding: MAPK9; conditions: target MAPK9
CDK9 = assay: Kinobeads competition binding: CDK9; conditions: target CDK9
MAPK1 = assay: Kinobeads competition binding: MAPK1; conditions: target MAPK1
MAP2K5 = assay: Kinobeads competition binding: MAP2K5; conditions: target MAP2K5
PKMYT1 = assay: Kinobeads competition binding: PKMYT1; conditions: target PKMYT1

Measured: CATDS

CN(C)C/C=C/C(=O)Nc1cc2c(Nc3ccc(F)c(Cl)c3)ncnc2cc1O[C@H]1CCOC1 [Afatinib]
0: NEK2 | MTOR | BRAF | CAMK4 | MAP3K12 | MAPK10 | PKM | MAPK11 | JAK2 | MAP4K1 | ILK | LIMK2 | IGF1R | NEK9 | CDC42BPA | PI4KB | JAK1 | MAP4K3 | IRAK3 | FLT3 | ACVR2B | CSNK1G1 | MARK2 | ERBB3 | CLK3 | PIK3C2B | MARK3 | MAP4K2 | LIMK1 | EIF2AK1 | ICK | CDC42BPG | CSNK1A1 | IRAK1 | ADRBK1 | MAP2K2 | LYN | MST1R | NLK | INSR | MAPK9 | CDK9 | MAPK1 | MAP2K5 | PKMYT1
